Earlier results as cited in patent publication US7217431B2, “Controlled agglomeration” (LifeCycle Pharma A/S, priority 2001, dated 2007).
Only a part of the results on these compounds is given; other tests are left out.

Settings: Table 1 Poorly-Soluble Drug Candidates

CCC(=O)N(c1ccccc1)C1CCN(CCc2ccccc2)CC1
Solubility In Water: Sparingly
